In PubChem BioAssay AID1224863 (Southern Research Institute, 2016):
Among all 10,000 compounds or so, about 15 (0.1%) were called active.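 The calls were made as follows: active = highest signal at least 8 times the median of untreated cell-only control wells at some dose; inactive = the rest.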 These entries were drawn from the full list.

By UniProt entry, the sequences of proteins in these tests, tags left out. Chains listed by the source or under a name are the forms on record and can include a tag or linker.
UniProt P13569, with tags, fused parts or gaps F508del: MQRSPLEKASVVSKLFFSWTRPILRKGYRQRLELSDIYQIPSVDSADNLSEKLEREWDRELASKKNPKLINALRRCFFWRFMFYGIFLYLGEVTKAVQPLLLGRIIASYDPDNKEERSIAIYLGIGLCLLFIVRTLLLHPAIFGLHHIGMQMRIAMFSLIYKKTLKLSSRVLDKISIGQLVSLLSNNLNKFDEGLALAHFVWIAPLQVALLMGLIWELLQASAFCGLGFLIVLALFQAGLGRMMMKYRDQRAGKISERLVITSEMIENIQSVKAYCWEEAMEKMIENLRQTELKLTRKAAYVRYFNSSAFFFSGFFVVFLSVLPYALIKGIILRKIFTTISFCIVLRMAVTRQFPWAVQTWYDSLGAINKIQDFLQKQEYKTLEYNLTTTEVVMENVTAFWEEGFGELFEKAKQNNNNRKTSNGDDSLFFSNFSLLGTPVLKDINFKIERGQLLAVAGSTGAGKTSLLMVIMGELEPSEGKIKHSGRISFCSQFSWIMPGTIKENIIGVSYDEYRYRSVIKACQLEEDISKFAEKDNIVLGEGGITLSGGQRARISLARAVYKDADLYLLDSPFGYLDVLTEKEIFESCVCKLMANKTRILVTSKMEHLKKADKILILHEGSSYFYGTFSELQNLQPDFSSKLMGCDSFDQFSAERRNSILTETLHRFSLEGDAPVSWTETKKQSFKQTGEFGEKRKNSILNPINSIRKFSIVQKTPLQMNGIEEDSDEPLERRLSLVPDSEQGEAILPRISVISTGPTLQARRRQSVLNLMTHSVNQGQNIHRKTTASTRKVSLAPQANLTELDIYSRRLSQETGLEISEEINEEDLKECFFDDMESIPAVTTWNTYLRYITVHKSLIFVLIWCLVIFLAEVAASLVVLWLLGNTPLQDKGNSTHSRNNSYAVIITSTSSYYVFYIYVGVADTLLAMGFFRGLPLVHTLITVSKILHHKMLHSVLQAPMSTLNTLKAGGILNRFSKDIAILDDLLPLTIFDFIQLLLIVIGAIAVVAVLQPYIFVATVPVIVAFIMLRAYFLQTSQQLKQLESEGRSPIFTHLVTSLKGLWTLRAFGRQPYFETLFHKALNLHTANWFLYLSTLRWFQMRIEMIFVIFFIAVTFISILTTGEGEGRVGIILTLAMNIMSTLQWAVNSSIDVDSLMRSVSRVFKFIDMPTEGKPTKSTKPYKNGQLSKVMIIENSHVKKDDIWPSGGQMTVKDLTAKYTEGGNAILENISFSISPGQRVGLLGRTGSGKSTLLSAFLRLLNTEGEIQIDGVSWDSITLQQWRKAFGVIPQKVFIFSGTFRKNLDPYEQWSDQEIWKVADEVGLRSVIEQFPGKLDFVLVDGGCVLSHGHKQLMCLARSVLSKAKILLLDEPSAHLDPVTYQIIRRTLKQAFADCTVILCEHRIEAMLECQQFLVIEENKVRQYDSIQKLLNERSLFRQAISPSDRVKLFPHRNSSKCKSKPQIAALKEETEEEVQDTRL

Tests used:
[1] = compounds raising F508del-CFTR protein level – cell-based, HeLa F508del-CFTR, immunofluorescence, viability, primary screen (AID 1224863); conditions: immunofluorescence total CFTR, 24 h, stronger effect = higher value; min viability: measured here: HeLa viability, alamarBlue, dose 20, library dosed in µg/mL unless noted; viability: measured here: primary viability 10 ug/mL, library dosed in µg/mL unless noted;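 as to fold increase: total CFTR protein by anti-CFTR immunofluorescence in fixed cells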
[2] = target: Cystic fibrosis transmembrane conductance regulator (Homo sapiens) (UniProt P13569); assay: as above; conditions: immunofluorescence total CFTR, 24 h; fold increase: measured here: primary screen 10 ug/mL, library dosed in µg/mL, stronger effect = higher value unless noted; max fold increase: dose 10, library dosed in µg/mL, stronger effect = higher value unless noted; outcome: library dosed in µg/mL unless noted

Row | SMILES | viability [1] [%] | fold increase [2] | outcome [2]
1 | Cc1noc2nc(-c3ccco3)cc(C(=O)OCc3cc(=O)n4cc(Cl)ccc4n3)c12 | 101 | 1.11 | inactive
2 | CC1(c2ccccc2)NC(=O)N(Cc2cc(=O)n3ccccc3n2)C1=O (stereo not given) | 91 | 1.06 | inactive
3 | Cn1ncc2c(NCC3(N4CCCCC4)CCCCC3)ncnc21 | 96 | 1.05 | inactive
4 | CC(C(=O)NC1CCCCCC1)N1CCN(C(C)C(=O)NC2CC2)CC1 (stereo not given) | 95 | 1.06 | inactive
5 | Fc1ccc(-c2[nH]ncc2CNCc2ccccc2Cn2cncn2)cc1 | 104 | 1.01 | inactive
6 | CC(c1nnc(-c2cccs2)o1)N1CCC(O)CC1 (stereo not given) | 99 | 1.04 | inactive
7 | Cn1cc(S(=O)(=O)N2CCN(Cc3nc(N)nc(N)n3)CC2)cc1C(N)=O | 91 | 0.98 | inactive
8 | Cn1c(SCc2ccc(-n3cccn3)cc2)nc2ccccc21 | 92 | 0.97 | inactive
9 | Cc1sc2nc(CN3CCCC3)nc(-n3nnc(-c4cccnc4)n3)c2c1C | 84 | 1.04 | inactive
10 | Cc1cc(C)cc(-c2nnc(SC3CCCCC3=O)o2)c1 (stereo not given) | 112 | 1.07 | inactive
11 | CC1Oc2ccc(NC(=O)C3=NN(C)C(=O)CC3)cc2NC1=O (stereo not given) | 100 | 0.99 | inactive
12 | Cc1ccc(C)c(CS(=O)(=O)Cc2ccccc2SC(F)F)c1 | 86 | 1.03 | inactive
13 | Cc1oc(C)c(C(=O)Nc2ncn[nH]2)c1C | 86 | 0.86 | inactive
14 | CC1CCC(NC(=O)c2ccc([N+](=O)[O-])s2)CC1 (stereo not given) | 77 | 0.76 | inactive
15 | Cc1ccc(-n2nnnc2SCc2cn3cccc(C)c3n2)cc1C | 79 | 0.98 | inactive
16 | C=CCOc1ccc(/C(O)=C2/C(=O)C(=O)N(CCCN(C)C)C2c2cccc(Br)c2)cc1 (stereo not given) | 91 | 1.07 | inactive
17 | O=S(=O)(c1ccc2ccccc2c1)N1CCN(S(=O)(=O)c2ccccc2Cl)CC1 | 94 | 1.06 | inactive
18 | Clc1ccc(-c2nc(Sc3ccccc3Cl)c3c4c(sc3n2)CCC4)cc1 | 91 | 1.15 | inactive
19 | Cc1c(C2Nc3ccccc3C(=O)N2c2ccc3c(c2)OCO3)cc(C#N)n1C (stereo not given) | 100 | 1.05 | inactive
20 | O=C(O)CN1C(=O)COc2cc(Br)ccc21 | 101 | 1.01 | inactive
21 | NC1CC(=O)N(c2ccc(Oc3ccccc3)cc2)C1 (stereo not given) | 60 | 0.71 | inactive
22 | Cc1cn2nc(NC3CCCC3)sc2n1 | 96 | 0.88 | inactive
23 | COc1cc(OC)c(CNC(C)c2ccc(F)cc2F)c(OC)c1 (stereo not given) | 103 | 1.05 | inactive
24 | CSc1ccc(OCC(=O)c2[nH]c(C)c(C(C)=O)c2C)cc1 | 77 | 0.86 | inactive
25 | COCCn1c(SCC(=O)c2[nH]c(C)c(C(C)=O)c2C)nc2sc3c(c2c1=O)CCCC3 | 102 | 1.01 | inactive
26 | CCCn1c(N)c(C(=O)CN2CCC(O)CC2)c(=O)[nH]c1=O | 91 | 1.07 | inactive
27 | COC(=O)c1ccc(C2NC(=O)NC(C)=C2C(=O)c2ccc(Cl)cc2)cc1 (stereo not given) | 87 | 1.02 | inactive
28 | N#CCCN1CCN(C(=O)C23CC4CC(CC(C4)C2)C3)CC1 | 86 | 1.05 | inactive

Row | SMILES | viability [1] [%] | fold increase [2] | outcome [2]
29 | Cc1nn(Cc2ccccc2Cl)c(C)c1CN(C)c1ccc2nnnn2n1 | 101 | 0.94 | inactive
30 | O=C1c2ccccc2S(=O)(=O)NN1Cc1ccc(Br)cc1 | 110 | 0.99 | inactive
31 | Cc1ccc(-c2nnc(NCCC(C)C)c3ccccc23)cc1C | 97 | 0.94 | inactive
32 | CSc1ncccc1C(=O)NC1CC2CC1C1CCCC21 (stereo not given) | 103 | 1.14 | inactive
33 | C=CCNC(=O)NC(=O)CN(Cc1nccn1C(F)F)C1CC1 | 83 | 1.18 | inactive
34 | C=CCn1c(SCC)nnc1-c1ccc([N+](=O)[O-])cc1 | 88 | 1.02 | inactive
35 | CC(OC(=O)C1=Cc2ccccc2OC1)C(=O)C12CC3CC(CC(C3)C1)C2 (stereo not given) | 91 | 1.1 | inactive
36 | O=C1C2CCCCC2C(=O)N1CC(O)COCc1ccc2c(c1)OCO2 (stereo not given) | 99 | 1.1 | inactive
37 | C=CCNCC(F)(F)F | 95 | 1.07 | inactive
38 | O=S(=O)(C1=Cc2ccccc2CC1)N1CCCC1c1ccc(F)cc1 (stereo not given) | 97 | 0.99 | inactive
39 | CCCN(CC1CC1)C(=O)CSc1nc(C)nc2sc3c(c12)CCCC3 | 81 | 0.94 | inactive
40 | CC1CCCN(S(=O)(=O)N2CCC(N3CCCc4ccccc43)CC2)C1 (stereo not given) | 82 | 0.89 | inactive
41 | O=C(C1CCCO1)N1CCN(Cc2ccc3c(c2)CCO3)CC1 (stereo not given) | 90 | 1.05 | inactive
42 | O=c1oc2ccc([N+](=O)[O-])cc2n1CN1CCN(c2cccc(Cl)c2)CC1 | 82 | 0.77 | inactive
43 | Cc1ccc(C2(C)NC(=O)N(Cc3coc(-c4ccc(C)cc4C)n3)C2=O)cc1 (stereo not given) | 85 | 0.96 | inactive
44 | O=S(=O)(Nc1cc2c(cc1Br)OCCO2)c1ccc(Br)cc1 | 88 | 1.03 | inactive
45 | Cc1cc(C)n2c(SCc3cc(-c4ccccc4)on3)nnc2n1 | 97 | 1.06 | inactive
46 | CCCCS(=O)(=O)Nc1ccc(F)c(N)c1 | 102 | 0.96 | inactive
47 | O=C(CNC(=O)c1ccco1)NC1CCC2CCCCC2C1 (stereo not given) | 75 | 1.02 | inactive
48 | Cc1cc(C(=O)CSc2nnc(-c3ccoc3C)o2)c(C)s1 | 84 | 0.89 | inactive
49 | O=C(CSc1nnnn1C1CC1)NC(c1cccs1)C1CCCC1 (stereo not given) | 90 | 0.94 | inactive
50 | CCOC(=O)c1oc2ccccc2c1COC(=O)c1ccc2c(c1)CCC(=O)N2 | 81 | 1 | inactive
51 | CCn1cnnc1SCCCCN1C(=O)c2ccccc2C1=O | 106 | 1.03 | inactive
52 | CC(=O)N1C=Cc2ccccc2C1CC(=O)Nc1cc2c(cc1Cl)OCO2 (stereo not given) | 89 | 0.97 | inactive
53 | O=S(=O)(Cc1ccc(F)cc1Cl)C12CC3CC(CC(C3)C1)C2 | 104 | 1.1 | inactive
54 | CCOCCCNc1nnc(SC(C(=O)NC(N)=O)C(C)C)s1 (stereo not given) | 97 | 0.95 | inactive
55 | Cc1nc(CNC(C(=O)O)C(C)C)cs1 (stereo not given) | 88 | 1.06 | inactive
